# Measured values taken from patent publication US6552060B1, “Asymmetric disulfides and methods of using same” (Prolx Pharmaceuticals, Inc., priority 1997, dated 2003).
# Test system: EMT6 mouse mammary tumor cells
# Assay: Cytotoxicity against EMT6 cells in culture (MTT)
smiles,measurement,setting,value
Cc1ccnc(SSCCCl)n1,IC50,"read-out: Disulfide Cytotoxicity (IC50), Table 5, 48 h exposure, MTT",73 µM
same,IC50,"read-out: Toxicity / Cytotoxicity, Table 3",73 µM

# Read-outs that look alike come from different tables or passages of the source.
